Results as given in PubChem BioAssay AID1259374 (The Scripps Research Institute Molecular Screening Center, 2018).
The list shows a part of the results, in another mix than the full data. The source made the active and inactive calls. Rule as the data show it: active = inhibition above about 50%; inactive = the rest.

Sequences of proteins named here, by UniProt entry; tags and fusion partners are left off. A change or cut given only in a name is not applied to a line headed by its entry.
UniProt O75030: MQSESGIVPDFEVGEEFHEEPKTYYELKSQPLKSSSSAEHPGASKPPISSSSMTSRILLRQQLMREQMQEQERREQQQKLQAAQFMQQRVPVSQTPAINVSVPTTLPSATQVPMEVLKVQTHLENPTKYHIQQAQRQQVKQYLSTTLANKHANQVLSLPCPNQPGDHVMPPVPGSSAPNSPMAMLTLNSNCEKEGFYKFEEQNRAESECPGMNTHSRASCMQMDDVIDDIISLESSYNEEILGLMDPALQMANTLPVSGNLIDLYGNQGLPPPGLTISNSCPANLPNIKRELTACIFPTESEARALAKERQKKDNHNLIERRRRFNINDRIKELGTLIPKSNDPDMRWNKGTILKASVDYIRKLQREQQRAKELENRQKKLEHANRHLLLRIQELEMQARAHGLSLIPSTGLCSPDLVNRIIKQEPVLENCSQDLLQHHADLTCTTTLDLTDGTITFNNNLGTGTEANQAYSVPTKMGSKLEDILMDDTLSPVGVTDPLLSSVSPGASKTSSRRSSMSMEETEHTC

Target: Microphthalmia-associated transcription factor (Homo sapiens) (UniProt O75030)
Experiment: MITF inhibitors, primary screen, biochemical, AlphaScreen, human (AID 1259374);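 also: 0% = vehicle wells with protein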
Conditions: AlphaScreen MITF homodimerization, bead proximity signal; at 2.6 µM; stronger effect = higher value

Structure (SMILES) | inhibition
O=C(COC(=O)C(O)(c1ccccc1)c1ccccc1)NCC(F)(F)F | inactive: 11.1%
BrCC1CN=C(Nc2ccccc2Br)S1 (stereo not given) | inactive: 17.9%
CC(C)OP(=O)(OC(C)C)C(=O)c1ccccc1 | inactive: -16.4%
c1ccc2nc(-c3nc4ccccc4[nH]3)ccc2c1 | inactive: 0.41%
O=C(N/N=C\c1ccc([N+](=O)[O-])cc1)c1cc([N+](=O)[O-])cc([N+](=O)[O-])c1O | inactive: 7.99%
CCOC(=O)C(C(=O)OCC)C(O)c1c([N+](=O)[O-])cc([N+](=O)[O-])cc1[N+](=O)[O-] (stereo not given) | inactive: 3.52%
Cc1ccc(NCCc2c([N+](=O)[O-])cc([N+](=O)[O-])cc2[N+](=O)[O-])cc1 | inactive: 12.9%
O=C(Nc1cccc([N+](=O)[O-])c1)c1ccc([N+](=O)[O-])cc1[N+](=O)[O-] | inactive: -7.89%
O=C(c1cccnc1)N(Cc1cccnc1)C1CCN(CCc2cccs2)CC1 | inactive: 9.87%
CCC(C(=O)OC1CN2CCC1CC2)c1ccccc1 (stereo not given) | inactive: -2.52%
CCOP(=O)(Nc1cccc2ccccc12)OCC | inactive: 9.34%
Cc1cc(NC(=O)NP(=O)(O)O)n(-c2ccccc2)n1 | inactive: 28.4%
CCOP1(=O)N=C(c2ccc(Br)cc2)NC(=O)N1 (stereo not given) | inactive: -4.13%
CN(C(=O)Cc1ccc(Cl)c(Cl)c1)[C@@H]1CC[C@]2(CCCO2)C[C@H]1N1CCCC1 | inactive: 12.5%
COc1cc(-n2cnnn2)ccc1-n1cnnn1 | inactive: 4.15%
BrCC1CN=C(Nc2ccccc2)S1 (stereo not given) | inactive: -3.74%
CC(C)OP(=O)(OC(C)C)C(=O)c1ccco1 | active: 70.4%
Cc1cccc(OCC(=O)OC2CN3CCC2CC3)c1 (stereo not given) | inactive: 14.3%
Cc1cc(Br)c(Nc2c([N+](=O)[O-])cc([N+](=O)[O-])c3nonc23)cc1[N+](=O)[O-] | inactive: -6.27%
COP(=O)(Nc1ccc(C)cc1)OC | inactive: -2.81%

Structure (SMILES) | inhibition
Cc1ncc(-c2ccccc2)c2ccccc12 | inactive: -5.83%
NC(=O)Nc1ccc([As](=O)(O)O)cc1 | inactive: 16.6%
O=C(COC(=O)C(O)(c1ccccc1)c1ccccc1)NC(=O)NCc1ccccc1 | inactive: 2.65%
O=[N+]([O-])c1ccc(N/N=C/c2ccc(Cl)c([N+](=O)[O-])c2)c([N+](=O)[O-])c1 | inactive: -14.9%
Cc1ccc(NC2=NCC(CBr)S2)cc1 (stereo not given) | inactive: -8.88%
NC(=O)c1nsnc1NCCCl | inactive: -2.35%
CC(=O)c1cccc(NC(=O)N(Cc2ccco2)C2CCN(CCc3ccccn3)CC2)c1 | inactive: -17.1%
O=C(Oc1ccc([N+](=O)[O-])cc1[N+](=O)[O-])c1cc([N+](=O)[O-])cc([N+](=O)[O-])c1 | inactive: -2.15%
O=[N+]([O-])c1cccc(P(=O)(Nc2ccccn2)c2cccc([N+](=O)[O-])c2)c1 | inactive: -3.14%
CC1(C)Nc2ccccc2OP1(=O)c1ccccc1 (stereo not given) | inactive: 3.39%
Cc1ccnc(NP2(=O)C=C(c3ccccc3)OC(c3ccccc3)=C2)c1 | inactive: 10.4%
CN(C(=O)Cc1ccccc1)[C@@H]1CC[C@]2(CCCO2)C[C@H]1N1CCCC1 | inactive: 23.6%
CCOC(=O)NC(Sc1cc(C)ncn1)C(Cl)(Cl)Cl (stereo not given) | inactive: 5.11%
O=[N+]([O-])c1ccc(Nc2ccc([N+](=O)[O-])cc2[N+](=O)[O-])c(O)c1 | inactive: 8.5%
CCOP1(=O)Oc2ccccc2OC1c1ccccc1 (stereo not given) | inactive: -5.95%
NC(=O)COC(=O)C1(O)c2ccccc2-c2ccccc21 | inactive: 4.73%
O=P(Nc1nccs1)(Oc1ccccc1)Oc1ccccc1 | inactive: 17.5%
O=P(Nc1nccs1)(c1ccccc1)c1nc2ccccc2s1 (stereo not given) | inactive: 49.2%
CCOc1ccc2nc(NCCCl)[nH]c2c1 | inactive: 1.02%
CC(=O)NC(SC1=NCCS1)C(Cl)(Cl)Cl (stereo not given) | inactive: 11.2%

Structure (SMILES) | inhibition
O=P(Nc1ccccn1)(c1ccccc1)c1ccccc1 | inactive: -7.07%
Cn1cnc([N+](=O)[O-])c1SCCCl | inactive: 0.95%
CCSP(=O)(c1ccccc1)c1ccccc1 | inactive: 7.16%
COP(=O)(OC)Oc1c(Cl)c(Cl)c(O)c(Cl)c1Cl | inactive: 14.5%
CC(=Nc1cc([N+](=O)[O-])ccc1C)NNc1ccc([N+](=O)[O-])cc1[N+](=O)[O-] | inactive: -10%
O=[N+]([O-])c1ccc(N/N=C/c2ccc([N+](=O)[O-])s2)c([N+](=O)[O-])c1 | inactive: -6.45%
O=[N+]([O-])c1ccc(NCCN(CCO)c2ccc([N+](=O)[O-])cc2[N+](=O)[O-])c(Cl)c1 | inactive: 1.81%
COc1cc([N+](=O)[O-])cc([N+](=O)[O-])c1OCC(=O)N/N=C/c1ccc([N+](=O)[O-])o1 | inactive: 1.79%
CCCCOP(=O)(Nc1cccc(F)c1)OCCCC | inactive: -2.81%
CC1(C)COP(=S)(N(C2=NCCC2)c2ccccc2)OC1 | inactive: 12.2%
CC(C)OP(=O)(Nc1ccc(Br)cc1)OC(C)C | inactive: 1.46%
O=C(Nc1cccc(F)c1)N(Cc1cccnc1)C1CCN(CCc2ccccn2)CC1 | inactive: 9.65%
Cc1c(N=Cc2ccc([N+](=O)[O-])cc2)cc([N+](=O)[O-])cc1[N+](=O)[O-] | inactive: 9.05%
O=[N+]([O-])c1ccc2c(c1)/C(=N\O)c1cc([N+](=O)[O-])cc([N+](=O)[O-])c1-2 | inactive: 2.4%
N#Cc1cccc(C(=O)N(Cc2ccco2)C2CCN(CCc3ccccn3)CC2)c1 | inactive: -11.2%
Cc1n[n+]2c([nH]c1=O)SCC(Br)C2c1ccccc1 (stereo not given) | inactive: 7.34%
Cc1nn(-c2ccccc2)c2c1P(=O)(N1CCOCC1)N(C)C(c1ccccc1)=N2 (stereo not given) | inactive: 5.67%
CC(C)NC(=O)N(Cc1cccnc1)C1CCN(CCc2ccccn2)CC1 | inactive: 12.4%
COc1ccccc1NC1=NCC(CBr)S1 (stereo not given) | inactive: -2.54%
O=C(/C=C/c1ccccc1)OC1CN2CCC1CC2 (stereo not given) | inactive: -1.67%
